B1: chimeric rabbit/human IgG1 R11 (antibody, V domains shown)
VH: QSVKESEGDLVTPAGNLTLTCTASGSDINDYPISWVRQAPGKGLEWIGFINSGGSTWYASWVKGRFTISRTSTTVDLKMTSLTTDDTATYFCARGYSTYYGDFNIWGPGTLVTISS
VL: ELVMTQTPSSTSGAVGGTVTINCQASQSIDSNLAWFQQKPGQPPTLLIYRASNLASGVPSRFSGSRSGTEYTLTISGVQREDAATYYCLGGVGNVSYRTSFGGGTEVVVK
B2: chimeric rabbit/human Fab R11, purified Fab-(His)6 (Fab, V domains shown)
VH: B1 VH
VL: B1 VL
B3: chimeric rabbit/human Fab R12, purified Fab-(His)6 (Fab, V domains shown)
VH: QEQLVESGGRLVTPGGSLTLSCKASGFDFSAYYMSWVRQAPGKGLEWIATIYPSSGKTYYATWVNGRFTISSDNAQNTVDLQMNSLTAADRATYFCARDSYADDGALFNIWGPGTLVTISS
VL: ELVLTQSPSVSAALGSPAKITCTLSSAHKTDTIDWYQQLQGEAPRYLMQVQSDGSYTKRPGVPDRFSGSSSGADRYLIIPSVQADDEADYYCGADYIGGYVFGGGTQLTVT
B4: chimeric rabbit/human Fab Y31, purified Fab-(His)6 (Fab, V domains shown)
VH: QSLEESGGRLVTPGTPLTLTCTVSGIDLNSHWMSWVRQAPGKGLEWIGIIAASGSTYYANWAKGRFTISKTSTTVDLRIASPTTEDTATYFCARDYGDYRLVTFNIWGPGTLVTVSS
VL: ELVMTQTPSSVSAAVGGTVTINCQASQSIGSYLAWYQQKPGQPPKLLIYYASNLASGVPSRFSGSGSGTEYTLTISGVQREDAATYYCLGSLSNSDNVFGGGTELEIL
B5: chimeric rabbit/human IgG1 R12 (antibody, V domains shown)
VH: B3 VH
VL: B3 VL
B6: chimeric rabbit/human IgG1 Y31 (antibody, V domains shown)
VH: B4 VH
VL: B4 VL

By UniProt entry, the sequences of proteins in these tests, tags left out. Chains listed by the source or under a name are the forms on record and can include a tag or linker.
UniProt Q9Z139, other isoform, or with tags, fused parts or gaps: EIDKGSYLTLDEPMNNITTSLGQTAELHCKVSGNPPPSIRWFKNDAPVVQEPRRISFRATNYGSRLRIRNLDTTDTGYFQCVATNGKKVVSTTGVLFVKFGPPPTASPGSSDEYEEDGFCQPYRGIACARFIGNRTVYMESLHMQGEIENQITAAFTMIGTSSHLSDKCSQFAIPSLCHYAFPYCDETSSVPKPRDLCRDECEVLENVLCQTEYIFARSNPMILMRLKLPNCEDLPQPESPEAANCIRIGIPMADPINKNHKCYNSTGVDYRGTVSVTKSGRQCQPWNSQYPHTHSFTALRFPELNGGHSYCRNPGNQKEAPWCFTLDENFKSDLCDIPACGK

Assays:
Details in all cases: both partners purified
[1] = target: T1, hROR2-Fc, human ROR2 Fc fusion protein (Homo sapiens (Human)., UniProt Q01974); assay: ELISA; 100 ng antigen coated per well; 500 ng/mL purified IgG1, 2 h at 37°C; goat anti-human kappa pAbs-HRP
T1 construct: human ROR2

[2] = target: T1, hROR2-Fc, human ROR2 Fc fusion protein; assay: ELISA; purified Fab on the same panel of immobilized recombinant ROR1 proteins; data not shown
[3] = target: T2, Fc-mROR1, shortened extracellular region of mouse ROR1 fused to the Fc domain of human IgG1 (Mus musculus (Mouse)., UniProt Q9Z139); assay: SPR; Biacore X100; Fc-hROR1 (669 RU) or Fc-mROR1 (429 RU) immobilized on CM5; Fab injected at 1.5 to 100 nM; HBS-EP+ pH 7.4, 30 µL/min; 1:1 Langmuir model
T2 construct: mouse ROR1, shortened extracellular region, amino acids 51-391 (custom synthesized cDNA); two residues added after 391; C-terminal fusion to the dimeric Fc; source: HEK 293F, transiently transfected, purified from supernatant (Protein A); not shown: Fc (human IgG1), N-terminal, kept

[4] = target: T3, Fc-hROR1fz, Fz domain of human ROR1 fused to the Fc domain of human IgG1 (Homo sapiens (Human)., UniProt Q01973-1); assay: ELISA; purified Fab on the same panel of immobilized recombinant ROR1 proteins; data not shown
T3 construct: human ROR1, Fz domain, amino acids 165-299; template ROR1 isoform 1 TrueClone cDNA; C-terminal fusion to the dimeric Fc; source: HEK 293F, transiently transfected, purified from supernatant (Protein A); not shown: Fc (human IgG1), N-terminal, kept

[5] = target: T4, Fc-hROR1ig, Ig domain of human ROR1 fused to the Fc domain of human IgG1 (Homo sapiens (Human)., UniProt Q01973-1); assay: as above
T4 construct: human ROR1, Ig domain, amino acids 51-147; template ROR1 isoform 1 TrueClone cDNA; C-terminal fusion to the dimeric Fc; source: HEK 293F, transiently transfected, purified from supernatant (Protein A); not shown: Fc (human IgG1), N-terminal, kept

[6] = target: T5, Fc-hROR1kr, Kr domain of human ROR1 fused to the Fc domain of human IgG1 (Homo sapiens (Human)., UniProt Q01973-1); assay: as above
T5 construct: human ROR1, Kr domain, amino acids 312-391; template ROR1 isoform 1 TrueClone cDNA; two residues added after 391; C-terminal fusion to the dimeric Fc; source: HEK 293F, transiently transfected, purified from supernatant (Protein A); not shown: Fc (human IgG1), N-terminal, kept

[7] = target: T3, Fc-hROR1fz, Fz domain of human ROR1 …; assay: ELISA; 100 ng antigen coated per well; 500 ng/mL purified IgG1, 2 h at 37°C; goat anti-human kappa pAbs-HRP
[8] = target: T4, Fc-hROR1ig, Ig domain of human ROR1 …; assay: as above
[9] = target: T5, Fc-hROR1kr, Kr domain of human ROR1 …; assay: as above
[10] = target: T2, Fc-mROR1, shortened extracellular …; assay: SPR; Biacore X100; Fc-hROR1 (669 RU) or Fc-mROR1 (429 RU) immobilized on CM5; bivalent IgG1 injected at 1.5 to 100 nM; HBS-EP+ pH 7.4, 30 µL/min; 1:1 Langmuir model; virtual affinity (avidity), Kd shown in quotes

| Binder | binding result [1] | binding result [2] | binding result [4] | binding result [5] | binding result [6] | binding result [7] | binding result [8] | binding result [9] | also measured |
| --- | --- | --- | --- | --- | --- | --- | --- | --- | --- |
| B1 | no binding (tested: 500 ng/mL) | – | – | – | – | – | – | – | – |
| B2 | – | no binding | – | – | – | – | – | – | – |
| B3 | – | no binding | no binding | no binding | no binding | – | – | – | binding result [3]: no binding (tested: 100 nM) |
| B4 | – | no binding | no binding | no binding | no binding | – | – | – | – |
| B5 | no binding (tested: 500 ng/mL) | – | – | – | – | no binding (tested: 500 ng/mL) | no binding (tested: 500 ng/mL) | no binding (tested: 500 ng/mL) | binding result [10]: no binding (tested: 100 nM) |
| B6 | no binding (tested: 500 ng/mL) | – | – | – | – | no binding (tested: 500 ng/mL) | no binding (tested: 500 ng/mL) | no binding (tested: 500 ng/mL) | – |

From paper PMC3115963, “Therapeutic Potential and Challenges of Targeting Receptor Tyrosine Kinase ROR1 with Monoclonal Antibodies in B-Cell Malignancies” (PLoS ONE, 2011)
